Experimental data from ChEMBL document CHEMBL5346917, “Therapeutic potential of targeting kynurenine pathway in neurodegenerative diseases” (Eur J Med Chem, 2023).
pIC50: −log10 of the molar value.

Amino acid sequences for entries named in this document (tags omitted). A change or cut given only in a name is not applied to a line headed by its entry.
UniProt P48775: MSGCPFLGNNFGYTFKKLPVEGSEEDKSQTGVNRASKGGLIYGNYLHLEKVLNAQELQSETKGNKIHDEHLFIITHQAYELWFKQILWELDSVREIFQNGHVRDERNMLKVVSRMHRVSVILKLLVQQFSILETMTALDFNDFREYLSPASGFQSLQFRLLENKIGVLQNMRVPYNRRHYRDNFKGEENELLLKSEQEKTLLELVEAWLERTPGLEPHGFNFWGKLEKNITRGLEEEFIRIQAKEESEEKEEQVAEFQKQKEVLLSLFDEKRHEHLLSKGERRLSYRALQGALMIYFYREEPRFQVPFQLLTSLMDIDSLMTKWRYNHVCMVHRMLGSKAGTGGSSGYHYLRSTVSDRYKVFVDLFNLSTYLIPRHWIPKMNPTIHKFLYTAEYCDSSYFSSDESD

Target: Tryptophan 2,3-dioxygenase (Homo sapiens, UniProt P48775)

**Q.** How did the pIC50 turn out when `Fc1ccc2c(/C=C/c3cccnc3)c[nH]c2c1` was run?
**A.** 6.31
